Test system: Macrophage
Assay: Inhibition of immobilized immune complex-stimulated TNFalpha production in macrophages
Assay type: functional, cell-based

With `Cc1c(NC(=O)c2ccc(C(C)(C)C)cc2)cccc1-c1cn(C)c(=O)c(Nc2ccc(C(=O)N3CCOCC3)cc2)n1` the inhibition was “Dose-dependent effect”.

— ChEMBL document CHEMBL2057130, “Bruton's tyrosine kinase inhibitors: approaches to potent and selective inhibition, preclinical and clinical evaluation for inflammatory diseases and B cell malignancies” (J Med Chem, 2012)
